Patent US20110301159A1, “KINASE INHIBITOR COMPOUNDS” (UNIVERSITY OF SOUTH FLORIDA, priority 2008, published 2011)

How the values were obtained:
[1] = system: HEL cells; assay: Jak2-V617F-induced hematopoietic disease in NOD-SCID mouse model (HEL cell injection); type: in vivo, NOD-SCID mice
Description: Methods: In the experiment, NOD-SCID mice, N=36. were randomized into 6 groups (n=6). Baseline peripheral blood samples and weights were taken at Day 0. At day 7, 2×10^6 HEL cells were injected into each mouse in Groups 2, 3, 4 and 5. At day 28, Group 1 mice were completely naïve; Group 2 mice were dosed with DMSO; Group 3 mice were dosed with 0.1 mg/kg/day G6; Group 4 mice were dosed with 1.0 mg/kg/day G6; Group 5 mice were dosed with 10 mg/kg/day G6; Group 6 mice were dosed with 10 mg/kg/day G6, until day 49. Then all the mice were euthanized.
In the experiment, the following measurable endpoints were assessed. For peripheral blood, total white blood cell (WBC) counts, the percentage of blast cells, the percentage of nucleated red blood cells (RBC), and Hematocrits were measured. For bone marrow, quantitative cellularity, and Myeloid cell to erythroid cell (M:E) ratio were assessed. Further, toxicity in spleen, brain, kidney, liver, and lung using histological analysis is assessed.
Peripheral blood samples were obtained via weekly submandibular bleeds using a 21 gauge needle. Blood samples were smeared onto glass slides, stained, and dried. Peripheral blast cells on each slide were then tabulated using a pathology light microscope. The average percent of peripheral blast cells for each treatment group was then graphed as a function of time.
At necropsy, femurs from each animal were formalin fixed, de-calcified and then parrafin embedded. Parrafin sections were then made, stained with hematoxylin and eosin and dried. The number of myeloid and erythroid cells were then tabulated by a veterinary pathologist who was blind to the treatment groups. The ratio of myeloid to erythroid cells was then graphed as a function of treatment group. Further, the average number of mature and immature erythroid cells was then graphed as a function of treatment group.
Additionally, at necropsy, animals were weighed one final time and spleens were then removed from each mouse. The wet weight of each spleen was recorded and the spleen weight to body weight ratio was graphed as a function of treatment group.

[2] = Aqueous solubility (MultiScreen Solubility Filter Plate); type: physicochemical
Description: Methods: Jak2-V617F expressing Human Erythroleukemia (HEL) cells were plated in 96 well plates at ˜40,000 cells per well and incubated with either vehicle control (0.25% DMSO) or with 25 uM of Jak2 kinase inhibitors. Viable cell numbers were then determined at the times (0, 4, 24, 48 and 72 hours) via trypan blue exclusion and a hemocytometer. Aqueous solubility was determined using a MultiScreen® Solubility Filter Plate (Millipore) (see Quantitative method to determine drug aqueous solubility: optimization and correlation to standard methods; http://www.millipore.com/techpublications/tech1/an1730en00) and a Spectrophotometer.

Substance	ratio of Myeloid cells:Erythoid cells (bone marrow) ([1]; HEL cell injected mice, 0.1 mg/kg G6)	ratio of Myeloid cells:Erythoid cells (bone marrow) ([1]; HEL cell injected mice, 1.0 mg/kg G6)	ratio of Myeloid cells:Erythoid cells (bone marrow) ([1]; HEL cell injected mice, 10 mg/kg G6)	ratio of Myeloid cells:Erythoid cells (bone marrow) ([1]; SCID mice without HEL cells, 10 mg/kg G6)	minimum dose reversing HEL cell induced decrease in ratio of Myeloid cells:Erythoid cells ([1]; mouse, in vivo) [mg/kg/day]	spleen weight to body weight ratio ([1]; mouse, in vivo)	Aqueous Solubility [2] [µM]
(Z) and (E)-4,4′-(Hex-3-ene-3,4-diyl)bis(2-((diethylamino)methyl)phenol) [Compound G6]	0.3	1.25	1.2	1.1	1	reduces the spleen weight to body weight ratio	455
(Z)- and (E)-4,4′-(But-2-ene-2,3-diyl)bis(2-((diethylamino)methyl)phenol) [NB-2]							816
